This is an account of results in patent US20210179623A1, “NEW CHEMICAL COMPOUND CONTAINING ACTIVE ENANTIOMETER S-(-) KETOROLAC TROMETHAMINE FOR THE TREATMENT OF PAIN” (priority 2017, published 2021).

Series [1] relates to gouty arthritis-type pain. Put plainly: PIFIR pain-induced functional impairment model in the rat. Type of series: in vivo, male Wistar rats. The note with it: rats, oral route, relative to maximum efficacy of rac-ketorolac. The source says: In order to determine and compare the antinociceptive effects of these analgesics the preclinical experimental model of PIFIR “pain-induced functional impairment model in the rat” was used.

In the next series the test system is rat population. The note with it: rats, oral route; FIG. 8.

With “2-amino-2-hydroximethyl-1,3 propanediol (1:1) S-(−)-5-benzoyl-2,3-dihydro-1H-pyrrolizine-1-carboxylate [S-(−)-ketorolac tromethamine]”, the “RELATIVE EFFICACY” value in series [1] is on record as 1.0. Also, the therapeutic index result in the series with rat population was “very high and favorable therapeutic index”.
